# Measured values taken from patent publication US20230243822A1, “MOLECULAR DISEASE PROFILE AND USE THEREOF FOR MONITORING AND TREATING RHEUMATAOID ARTHRITIS” (JANSSEN BIOTECH, INC., priority 2020, published 2023).
# Experiments:
# RA patients = conditions: CERTAIN Biorepository RA patients; cited from earlier work
# [1] = test system: 4-analyte M-DP panel (CRP, SAA, CXCL10, CXCL13); experiment: Pharmacodynamic 4-analyte M-DP score by MSD U-PLEX, CORRONA CERTAIN biorepository serum; assay type: in vivo, human; conditions: U-PLEX 4-analyte; for M-DP score GMean decrease: all treated; for M-DP score mean difference ± SD, Good vs. No: 6-month response
# Text: Additionally, a validation set of serum samples were commercially obtained (CERTAIN Biorepository (Pappas AD, et al. BMC Musculoskelet Disord. 2014 Apr. 1; 15:113), Coronna, LLC) for RA patients treated with rituximab (n=12) or abatacept (n=38), with serum samples obtained at baseline and at 3-months and 6-months of treatment. EULAR DAS28-CRP clinical response rates were 50% and 58% for good response, 32% and 33% for moderate response, and 18% and 8% no response, for rituximab and abatacept treatment groups, respectively.
# Using custom-designed Meso Scale Discovery (MS) U-PLEX panels, concentrations of CRP and SAA in panel one and CXCL10 and CXCL13 in panel 2, along with IL-6, were measured in the Coronna CERTAIN Biorepository serum samples from rituximab (Rituxan) and abatacept (Orencia)-treated RA patients. PD M-DP scores for the 4-analyte panel were calculated based on these concentrations of CRP, SAA, CXCL10, and CXCL13.
# The 4-analyte panel of CRP, SAA, CXCL10, and CXCL13 was measured by MSD U-PLEX assays in serum samples from 38 abatacept- and 12 rituximab-treated RA patients at baseline and 3—and 6—month visits. These samples were not previously evaluated for the M-DP panel development or reduction. Decreases in M-DP scores concurred with the clinical efficacy observed for abatacept treatment, with significant PD M-DP scores at 3—and 6—months for abatacept (GMean 45% decrease, p<0.0001 for both) (Table 6). […] Significant M-DP scores were also observed for rituximab at 6-months (GMean 36% decrease, p=0.040), with a trend for scores below zero at 3-months (GMean 30% decrease, p=0.17) (Table 6).
# [2] = month 3, week 24 EULAR DAS28-CRP response
substance,measurement,setting,value
abatacept,"EULAR DAS28-CRP clinical response rate, good response",RA patients,58%
same,"EULAR DAS28-CRP clinical response rate, moderate response",RA patients,33%
same,"EULAR DAS28-CRP clinical response rate, no response",RA patients,8%
same,M-DP score GMean decrease,[1]; 3-months,45%
same,M-DP score GMean decrease,[1]; 6-months,45%
same,"M-DP score GMean decrease, good response group",[1]; [2],51%
same,"M-DP score GMean decrease, moderate response group",[1]; [2],49%
same,"M-DP score GMean decrease, no response group",[1]; [2],16%
same,"M-DP score mean ± SD, 6-month DAS28-CRP response group Good",[1]; score at month 3M,−1.04 ± 1.07 [19] + log2 (fold/baseline)
same,"M-DP score mean ± SD, 6-month DAS28-CRP response group Moderate",[1]; score at month 3M,−0.96 ± 0.97 [12] * log2 (fold/baseline)
same,"M-DP score mean ± SD, 6-month DAS28-CRP response group No",[1]; score at month 3M,−0.25 ± 0.71 [7] log2 (fold/baseline)
same,"M-DP score mean ± SD, All treated",[1]; score at month 3M,−0.87 ± 1.01 [38] + log2 (fold/baseline)
same,"M-DP score mean difference ± SD, Good vs. No",[1]; score at month 3M,−0.79 + 0.99 (0.0044) log2 (fold/baseline)
same,"M-DP score mean ± SD, 6-month DAS28-CRP response group Good",[1]; score at month 6M,−1.21 ± 0.95 [19]+ log2 (fold/baseline)
same,"M-DP score mean ± SD, 6-month DAS28-CRP response group Moderate",[1]; score at month 6M,−0.84 ± 1.10 [12] * log2 (fold/baseline)
same,"M-DP score mean ± SD, 6-month DAS28-CRP response group No",[1]; score at month 6M,0.13 ± 0.94 [7] log2 (fold/baseline)
same,"M-DP score mean ± SD, All treated",[1]; score at month 6M,−0.85 ± 1.09 [38] + log2 (fold/baseline)
same,"M-DP score mean difference ± SD, Good vs. No",[1]; score at month 6M,−1.34 ± 0.94 (0.0084) log2 (fold/baseline)
